This assay can be described thus: Antiproliferative activity against human SKOV3-MDR1-M6/6 cells overexpressing wild type beta3 tubulin after 48 hrs by sulforhodamine B assay. Conditions: SKOV3-MDR1-M6/6, 48 h. It is filed as functional, cell-based. (In SRB staining, fixed cells bind dye roughly in proportion to their protein.)

For the molecule `CC(=O)O[C@H]1C(=O)[C@@]2(C)[C@H]([C@H](OC(=O)c3ccccc3)[C@]3(O)C[C@H](OC(=O)[C@H](O)[C@@H](NC(=O)c4ccccc4)c4ccccc4)C(C)=C1C3(C)C)[C@]1(OC(C)=O)CO[C@@H]1C[C@@H]2O` [PACLITAXEL], the half-inhibitory concentration (IC50) (usually the concentration at which inhibition is half-maximal) was determined as 1190 nM.

(Values after ChEMBL document CHEMBL3400114, “The design, synthesis and biological evaluation of conformationally restricted 4-substituted-2,6-dimethylfuro[2,3-d]pyrimidines as multi-targeted receptor tyrosine kinase and microtubule inhibitors as potential antitumor agents” (Bioorg Med Chem, 2015).)
